Patent publication US6783973B1, “Mammalian catecholamine receptor genes and uses” (Oregon Health & Science University, priority 2000, dated 2004)

Experiments:
[1] = tested on: human catecholamine receptor; experiment: MAP kinase pathway stimulation, Elk-gal/luciferase reporter assay in HEK 293 cells transfected with H2-3pcDNA3.1
[2] = tested on: HEK 293 cells transfected with pcDNA3.1 without catecholamine receptor sequences; experiment: MAP kinase pathway stimulation, Elk-gal/luciferase reporter assay in control HEK 293 cells transfected with pcDNA3.1

Question: For `CCCN1CCC[C@@H]2Cc3n[nH]cc3C[C@H]21` [Quinpirole], which “fold stimulation of luciferase (MAP kinase activation), H2-3 pcDNA3.1” value [1] is on record?
Answer: Its value is 2.14 fold.

Question: What about the “fold stimulation of luciferase (MAP kinase activation), pcDNA3.1” value [2] of the same molecule?
Answer: Its value is 0.6 fold.
